Ki data for one compound are collected here from publication PMC2929268 (The Journal of organic chemistry, 2010).

Chains of the proteins cited; added tags and fusions are not shown.
UniProt P32245, whole entry: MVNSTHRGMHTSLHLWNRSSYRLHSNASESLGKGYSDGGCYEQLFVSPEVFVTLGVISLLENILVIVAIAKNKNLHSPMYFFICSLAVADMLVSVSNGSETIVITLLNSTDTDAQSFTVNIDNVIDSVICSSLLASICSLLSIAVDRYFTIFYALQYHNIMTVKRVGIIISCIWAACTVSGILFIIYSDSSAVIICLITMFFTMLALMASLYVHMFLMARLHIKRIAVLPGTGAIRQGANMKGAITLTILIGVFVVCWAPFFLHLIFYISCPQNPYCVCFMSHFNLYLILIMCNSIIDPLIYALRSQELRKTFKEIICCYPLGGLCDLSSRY

In experiment [1] the target is T1, hMC4R (Homo sapiens, UniProt P32245). Briefly: Assay A: europium-based competitive binding assay with probe 17.
Experiment [2] deals with T1, hMC4R. Briefly: Assay B: europium-based competitive binding assay with probe 18.

For the compound `CC(=O)N[C@@H](Cc1cnc[nH]1)C(=O)N[C@H](Cc1ccccc1)C(=O)N[C@@H](CCCN=C(N)N)C(=O)N[C@@H](Cc1c[nH]c2ccccc12)C(N)=O` [MSH(4), Ac-His-DPhe-Arg-Trp-NH2], the Ki came to 1900 ± 550 nM on hMC4R [1] and 760 ± 40 nM on hMC4R [2].
